This data set deals with P450 2D6 (Homo sapiens (Human), UniProt P10635). The data set can be described thus: Cytochrome P450 isoenzyme inhibition assay, demethylation of Dextromethorphan. Particulars: (S)-isomers; human liver microsomes, 37° C. The data set is classed as in vitro ADME. A general note: Liver microsomes are a subcellular fraction often used to study metabolism.

Sequences of proteins named here, by UniProt entry; tags and fusion partners are left off.
UniProt P10635, whole entry: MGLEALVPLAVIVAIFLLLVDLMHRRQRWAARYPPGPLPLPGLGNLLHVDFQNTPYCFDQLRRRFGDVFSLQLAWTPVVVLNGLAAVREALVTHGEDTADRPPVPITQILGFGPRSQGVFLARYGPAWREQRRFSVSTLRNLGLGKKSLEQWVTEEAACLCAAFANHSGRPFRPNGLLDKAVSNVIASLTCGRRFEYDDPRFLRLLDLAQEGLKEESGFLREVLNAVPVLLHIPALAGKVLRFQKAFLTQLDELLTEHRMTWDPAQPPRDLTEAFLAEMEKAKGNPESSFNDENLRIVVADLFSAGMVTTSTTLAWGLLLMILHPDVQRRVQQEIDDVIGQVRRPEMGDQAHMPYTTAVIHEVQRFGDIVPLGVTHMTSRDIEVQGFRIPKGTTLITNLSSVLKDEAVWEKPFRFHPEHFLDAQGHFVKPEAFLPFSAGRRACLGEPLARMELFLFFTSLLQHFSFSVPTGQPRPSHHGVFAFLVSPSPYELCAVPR

The IC50 is the point on the concentration scale where inhibition reaches its midpoint. A higher IC50 goes with weaker potency in that assay. As to `CN[C@@H](C)C(=O)Nc1ccc(-c2c(-c3cccnc3OC)nc3ccccn23)c(C#Cc2ccc3c(C)nccc3c2)n1` [(S)-16, (2S)-N-{5-[2-(2-methoxypyridin-3-yl)imidazo[1,2-a]-pyridin-3-yl]-6-[2-(1-methylisoquinolin-6-yl)ethynyl]pyridin-2-yl}-2-(methylamino)-propanamide], the IC50 was found to be 29 µM. `CN[C@@H](C)C(=O)Nc1ccc(-c2c(-c3cnc(C)nc3)nc3cc(C)ccn23)c(C#Cc2ccc3c(C)nccc3c2)n1` [(S)-7, (2S)-N-{5-[7-methyl-2-(2-methylpyrimidin-5-yl)imidazo[1,2-a]-pyridin-3-yl]-6-[2-(1-methylisoquinolin-6-yl)ethynyl]pyridin-2-yl}-2-(methylamino)-propanamide]: the IC50 is over 50 µM.

(Values after US9481673B2.)
